Laboratory results reported in patent US7704490B2 (Institut Pasteur, priority 1998, dated 2010).

What was measured:
mAb H2-8 = test: ELISA inhibition of mAb H2-8 binding to IL-2 coated plates; design: species or system mouse; conditions: mAb at about 50% of maximum binding, preincubated with inhibitor
Method: Control is represented by non coated plates.
Binding inhibition experiments were performed to further characterize the specificity of mAb H2-8. […] H2-8 was preincubated with different peptides including five decapeptides (1-10, 5-15, 10-20, 15-25, 20-30).

mAb 19B11 = test: ELISA inhibition of mAb 19B11 binding to IL-2 coated plates; design: species or system mouse; conditions: control mAb
STAT = test: Electrophoretic mobility shift assay of STAT activation in KIT225 nuclear extracts; format: cell-based, human; conditions: STAT-3 and STAT-5; β-casein, GAS and GIRE probes
From the text: The same results were obtained with two other probes (GAS and GIRE).

IL-2: Human IL-2, a protein of 133 amino acids
inhibition of the binding of mAb H2-8 to IL-2 (mAb H2-8): able to inhibit | inhibition of the binding of mAb 19B11 to IL-2 (mAb 19B11): inhibited | STAT activation (STAT): show a STAT activation
